Test: physchem
Settings: buffer, pH 7.4

Structure (SMILES): CO[C@H]1/C=C/C[C@H](C)[C@@H](C)S(=O)(=O)NC(=O)c2ccc3c(c2)N(C[C@@H]2CC[C@H]21)C[C@@]1(CCCc2cc(Cl)ccc21)CO3 [TAPOTOCLAX]
- logD: 3.8
